From patent US12419961B2, “Docetaxel-aconitic anhydride conjugate exhibiting anti-tumor activity without in vivo toxicity” (CNPharm Co., Ltd., priority 2021, dated 2025)
“Also recorded” adds a separate entry of the source.

System: PANC-1
Assay: cell viability assay, cancer cell killing effect on PANC-1
Type: cell-based
Details: FIG. 5A; pancreatic cancer cells

Substance: docetaxel-aconitic anhydride conjugate [A3Tx]
- cytotoxicity against cancer cell line PANC-1: higher toxicity toward cancer cell line; also recorded: higher cytotoxicity than DTX
